In patent US20200129511A1, “COMPOUNDS AND METHODS FOR TREATMENT OF NAFLD AND NASH” (Arena Pharmaceuticals, Inc., priority 2017, published 2020):

Tests used:
Format in all cases: in vivo
[1] = oral pharmacokinetics in monkey; settings: Male cynomolgus monkey, 10 mg/kg, 100% PEG400
[2] = oral pharmacokinetics in dog; settings: Male beagle dog, 7.85 mg/kg, 100% PEG400
[3] = oral pharmacokinetics in rat; settings: Male Sprague-Dawley rat, 10 mg/kg, 40% HPβCD
[4] = oral pharmacokinetics in mouse; settings: Male C57B1 mouse, 10 mg/kg, 40% HPβCD

Compound: COc1c(Nc2ccc(S(C)(=O)=O)nc2C)ncnc1OC1CCN(C(=O)OC(C)C)CC1 [Compound 1, 4-[6-(6-Methanesulfonyl-2-methyl-pyridin-3-ylamino)-5-methoxy-pyrimidin-4-yloxy]-piperidine-1-carboxylic acid isopropyl ester]
- t1/2 [1]: 4.4 h
- t1/2 [2]: 10.9 h
- t1/2 [3]: 4.3 h
- t1/2 [4]: 5.9 h
